## Measured affinities in a library of Ab-14 heavy chain variants

The measurements come from Li et al. 2023 (doi:10.1038/s41467-023-39022-2) through the FLAb antibody collection.

Antigen: PDVDLGDISGINAS, a 14-residue peptide of the SARS-CoV-2 spike HR2 region.

The variants keep the light chain, the linker and the frameworks of Ab-14 (scFv order VH, three GGGGS repeats, VL).
VH: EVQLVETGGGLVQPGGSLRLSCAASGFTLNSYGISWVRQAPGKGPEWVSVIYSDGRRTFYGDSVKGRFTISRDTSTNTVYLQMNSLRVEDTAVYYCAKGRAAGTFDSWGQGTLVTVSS
VL: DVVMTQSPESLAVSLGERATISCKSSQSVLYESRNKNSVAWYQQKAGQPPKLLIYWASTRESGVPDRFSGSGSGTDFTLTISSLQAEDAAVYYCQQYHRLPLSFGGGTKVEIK

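Phage display of a naive human antibody library on the peptide gave the parent. These sequences belong to a second round, designed from the earlier measurements on random variants of the parent. Several design methods are mixed in this list. The scFvs were displayed on barcoded MATa yeast, the peptide on MATalpha yeast. The frequency of each diploid, read from paired DNA barcodes, reflects how well the two displayed proteins bind. A regression on co-assayed BCL2-family reference pairs converts the normalised counts of each replicate to an apparent Kd. The assay was run in six technical replicates.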

Each variant is given by its three heavy chain CDRs, as the data file delimits them; those of the parent are GFTLNSYGIS, VIYSDGRRTFYGDSVK, GRAAGTFDS. Affinities are written as log10 Kd with Kd in nM; a lower number is a better binder. Replicates are averaged; those with no signal do not enter the mean. An entry "no signal" has no value in the source: the pair was not observed among the diploids in any replicate. This suggests poor binding but is not conclusive. Three control strains display no target. For all heavy chain designs, 1% of the pairings with them gave a signal, with a median of 2.08 and one signal in twenty below 0.84, so weak values seen in few replicates may be background.

CDR-H1 | CDR-H2 | CDR-H3 | mean, log10 nM | detected
GFSLEEYGIS | VIYADGSRRAYAQDVK | GGTAVGFVV | no signal | 0 of 6
GFDLDEYGIS | VIYADGRRTFYADSVK | GEVAGTFFS | -0.32 | 6 of 6
GFDLNEYGIS | VIYADGRRTFYSDSVK | GEIAGFFDI | 2.35 | 3 of 6
KENINEYGIS | VIYADGRRTAYTQDVK | GQAGGIIDV | no signal | 0 of 6
GRTLNSYGIS | VIYSDGRRTFYGDSVK | LRYAGTFNS | no signal | 0 of 6
GFTLNSYGIS | VIYSDGQRTAYGDSVK | GRAAGTFDS | 1.63 | 6 of 6
GFTLGSYGIS | VIYSDGRRTAYHDSVK | GRVAGTFDS | 0.52 | 6 of 6
GFWLNEYGIS | VIYSDGRRTAYGDSVK | GRAAGTFDS | 0.47 | 6 of 6
GFDLNSYGIS | VIYSDGRRTFYGDSVK | GRAALWFNS | 1.33 | 1 of 6
GFSLNSYGIS | VIYSDGRRTFYGDSVK | GQAAGTFDV | no signal | 0 of 6
GFDLNEYGIS | VIYADGSRTAYVDSVK | GNVAGTFDI | -0.40 | 6 of 6
GFTLNSYGIS | VIYSDGRRTFYGDSVK | GYNAGTFDS | 1.56 | 5 of 6
GFTLNSYGIS | VIYSDGRRTYYGDSVK | GYAAGTFDT | -0.25 | 6 of 6
GFDLNEYGIS | VIYADGRRTFYADSVK | GEAGGTFDQ | 0.84 | 4 of 6
GFTLNSYGIS | VIYSDGRRTFYTDSVK | GMVAGTFDS | 1.34 | 6 of 6
GFDLNEYGIS | VIYADGKRTFYADSVK | GQNAGTFDL | -0.39 | 6 of 6
DFTLNSYGIS | VIYSDGRRTFYADSVK | GQLAGTFDS | 1.32 | 4 of 6
GFDLNEYGIS | VIYADGQRTAYADSVK | GKSAGTFDS | -0.19 | 6 of 6
GFDLNEYGIS | VIYADGVRTAYADSVK | GANAGTFDM | -0.36 | 6 of 6
GFSLNSYGIS | VIYSDGRRTFYVDSVK | GKQAGTFDS | 1.42 | 6 of 6
GFTLNDYGIS | VIYSDGRRTQYIDSVK | GREAGTFDS | 0.65 | 5 of 6
GFDLNEYGIS | VIYADGQRTAYADSVK | GSNAGTFDL | -0.51 | 6 of 6
GFELESYGIS | VIYSDGRRTFYADDVK | GRAAGTFDS | 0.76 | 6 of 6
GFTLNSYGIS | VIYSDGRRTFYGDSVK | ERAKCTFDS | 2.22 | 3 of 6
GFDLNEYGIS | VIYADGRRTAYADNVK | GEVAGTFDQ | -0.79 | 6 of 6
GFTLWSYGIS | VIYSDGRRTFYGDSVK | GRAAGTFDS | no signal | 0 of 6
GFDIDEYGIS | VIYADGMRTFYTDSVK | GETAGTFDA | -0.04 | 6 of 6
GFQLNSYGIS | VIYSDGRRTFYADSVK | GRLAGTFDS | 0.45 | 6 of 6
GFQLNSYGIS | VIYSDGRRTFYADSVK | GRQAGTFDT | 0.40 | 6 of 6
GFTLNSYGIS | VIYSDGRRTFYSDSVK | GKAAGTFDT | 0.86 | 6 of 6
GFNLNSYGIS | VIYSDGRRTFYGDDVK | GKTAGTFDS | 0.07 | 6 of 6
GITLNSYGIS | VIYSDGRRTFYGDSVK | GRAAGGFDS | no signal | 0 of 6
GFNLNSYGIS | VIYSDGRRTFYGDRVK | GRNAGTFDS | 0.19 | 5 of 6
GFSLNSYGIS | VIYSDGRRTFYGDSVK | GRAAGTFDW | 0.45 | 6 of 6
GFNLDEYGIS | VIYADGRRTFYADSVK | GQVAGTFLV | -0.32 | 6 of 6
GFTLNSYGIS | VIYSDGRRTFYGDSTK | GRRAGTFRS | no signal | 0 of 6
GFDLDEYGIS | VIYADGMRTAYVDDVK | GENAGTFDV | -0.13 | 6 of 6
GFKLNSYGIS | VIYSDGRRTFYKDSVK | GRTAGTFDS | 1.61 | 6 of 6
GFDLNEYGIS | VIYADGMRTFYADSVK | GQLAGTFDF | -1.05 | 6 of 6
PFSLNSYGIS | VIYSDGRRTFYGDSVK | GRNAGTFDS | no signal | 0 of 6
GFTLNEYGIS | VIYADGRRTFYHDSVK | GWAAGTFDS | 0.60 | 6 of 6
GFTLNSYGIH | VIYSDGRRTFYGDSVK | RRSAGTFDS | no signal | 0 of 6
GFDLNEYGIS | VIYADGKRTFYADHVK | GVNAGVFDT | 0.72 | 1 of 6
GFNLDEYGIS | VIYADGRRTFYADNVK | GQVAGTFDV | -0.40 | 6 of 6
GFELNSYGIS | VIYSDGRRTFYADSVK | GQEAGTFDS | -0.20 | 6 of 6
GFSLDEYGIS | VIYADGNRQVYIDKVK | GNYGGDFIE | no signal | 0 of 6
GFKLNSYGIS | VIYSDGRRTFYDDSVK | GQVAGTFDS | 0.51 | 6 of 6
GFTLNEYGIS | VIYSDGRRVFYGDSVK | GRAAGTFDS | no signal | 0 of 6
GFHLNDYGIS | VIYSDGRRTFYIDSVK | GRTAGTFDS | 0.63 | 6 of 6
GFTLNSYGIS | VIYSDGRRTFYGDSVK | GRDALTFVS | 2.23 | 6 of 6
GFTLNSYGIS | VIYSDGRRTFYTDDVK | GRIAGTPDS | no signal | 0 of 6
GFTLNSYGIS | VIYSDGRRTFYDDSVK | GQRYGTFDS | no signal | 0 of 6
GFDLDEYGIS | VIYADGMRTYYADSVK | GNNAGTFDI | 0.48 | 6 of 6
GFDLNEYGIS | VIYADGVRTSYIDSVK | GNVAGTFDT | -0.40 | 6 of 6
GFDLNSYGIS | VIYSDGRRTFYTDRVK | GQTAGTFDS | 0.96 | 5 of 6
GFDLNEYGIS | VIYADGRRTAYDDSVK | GQVAGTFDL | -0.20 | 6 of 6
GFDLNEYGIS | VIYADGRRTQYIDSVK | GNQAGTFDI | -0.24 | 6 of 6
GFDLDEYGIS | VIYADGRRTFYADSVK | GSNAGTFDM | -1.00 | 6 of 6
GFSLNSYGIS | VIYSDGRRTFYSDSVK | NRAAGTFVN | 2.13 | 1 of 6
GFDLDEYGIS | VIYADGLRTAYADSVK | GENAGTFDV | -0.19 | 6 of 6
GFDLNEYGIS | VIYADGVRTFYVDSVK | GENAGTFDV | -0.18 | 6 of 6
GFALNSYGIS | VIYSDGRRTFYDDSVK | GQVAGTFDS | 0.65 | 6 of 6
GFDLNEYGIS | VIYADGVRTAYADDVK | GNVAGTFDQ | no signal | 0 of 6
GFKLNEYGIS | VIYADGKRTAYADEVK | GGGTTDRDV | no signal | 0 of 6
GFTLNSYGIS | VIYSDGRRTFYGDSVK | GEMAGVFDK | no signal | 0 of 6
GFGLNDYGIS | VIYSDGRRTFYGDSVK | GRQAGTFDT | 0.26 | 6 of 6
GFTLNSYGIS | VIYSDGRRTFYADDVK | GRVAGTFDT | 0.31 | 6 of 6
GFELNSYGIS | VIYADGRRTFYGDRVK | GRTAGTFDS | 0.01 | 6 of 6
GFEIQDYGIS | VIYADGLRTAYSDGFK | GIIAGTFNV | 0.32 | 6 of 6
GNDLEEYGIS | VIYADGMRTAAVDSVK | GDNSGTVVF | no signal | 0 of 6
GFDLDEYGIS | VIYADGMRKAYADSVK | GNVAGTFDV | -0.55 | 6 of 6
GKSLDEYGIS | VIYADGLRTQYSNKVK | GLEGFFFDQ | no signal | 0 of 6
GFNLDEYGIS | VIYADGMRTQYKDQVK | GNLVATVMT | no signal | 0 of 6

Repeated from above, the 5 best binders with a signal in all replicates:

CDR-H1 | CDR-H2 | CDR-H3 | mean, log10 nM | detected
GFDLNEYGIS | VIYADGMRTFYADSVK | GQLAGTFDF | -1.05 | 6 of 6
GFDLDEYGIS | VIYADGRRTFYADSVK | GSNAGTFDM | -1.00 | 6 of 6
GFDLNEYGIS | VIYADGRRTAYADNVK | GEVAGTFDQ | -0.79 | 6 of 6
GFDLDEYGIS | VIYADGMRKAYADSVK | GNVAGTFDV | -0.55 | 6 of 6
GFDLNEYGIS | VIYADGQRTAYADSVK | GSNAGTFDL | -0.51 | 6 of 6

The range of this assay differs from that of the first round, and the authors advise against merging the two. The parent sequence was in this pool as ten entries: three were never detected, three once, and four in most replicates, with averages from 0.34 to 2.37. In the paper, a design with two or fewer of six values counts as a poor binder.